Here are results for 1 molecule from article PMC6525071 (Cell chemical biology, 2019).

Data set [1] relates to SUDHL6 subcutaneous xenografts. Put plainly: IKE efficacy study, tumor volume. It counts as in vivo, mouse. As to conditions: starting from day 9 of treatment.
The conditions of data set [2]: acidic versus neutral aqueous conditions.
The conditions of data set [3]: ref Larraufie et al., 2015; cited from earlier work.

The structures appear in SMILES notation.

For `CC(C)Oc1ccc(C(=O)Cn2ccnc2)cc1-n1c(CN2CCN(C(=O)COc3ccc(Cl)cc3)CC2)nc2ccccc2c1=O` [IKE, imidazole ketone erastin], the “tumor growth (fold change of tumor volume vs day 0)” value in data set [1] (23 mg/kg IKE IP once daily) and in data set [1] (40 mg/kg IKE IP once daily) was “significant decrease in tumor growth” in each case. Also, the aqueous solubility result in data set [2] was “soluble in acidic aqueous conditions, but not to the same degree in neutral aqueous conditions”. In addition, the water solubility result in data set [3] is listed as “intermediate”.
